From PubChem BioAssay AID651819 (National Center for Advancing Translational Sciences (NCATS), 2012) come the findings set out here.

The structures appear in SMILES notation. This is a selection; strong and weak results do not stand in their true shares. Calls of active or inactive are those of the source. Cut-off read from the data, not from the text of the source: active = activity change below about -30%; inactive = the rest.
% is set by controls: 0 for no effect and ±100 for the full control effect.

This assay deals with cytosolic chaperonin (CCT/TRiC complex). Nature of the assay: High-Throughput Screening for Modulators of Cytosolic Chaperonin Activity. The note with it: purified chaperonin ATPase assay, HTRF ADP detection, 30 min; active compounds read low. The text has this:
The eukaryotic chaperonin named TRiC (for TCP-1 ring complex), also called CCT (for chaperonin containing TCP1), is an essential and conserved chaperone required for the folding and activation of 10-15% of the proteins encoded by the human genome. […] Despite its central role in cellular folding, little is known about TRiC mechanism and mode of substrate binding. Currently, no specific TRiC inhibitors are available. Given the early promise of other chaperone-directed inhibitors as cancer therapeutics (e.g. HSP90 inhibitors), inhibitors of TRiC activity may also selectively target transformed cells and have potential use as therapeutics for cancer.
To this end, a miniaturized assay was developed to screen against the Molecular Libraries Small Molecule Repository (MLSMR).
NIH Chemical Genomics Center [NCGC]
NIH Molecular Libraries Probe Centers Network [MLPCN]
Assay Submitter (PI): Judith Frydman, Stanford University
1.5 uL/well TRiC enzyme suspended in buffer (30 mM TRIS pH7.4, 100 mM KCl, 5 mM MgCl2, 1 mM DTT) was added with BioRAPTR FRD dispenser at 40 nM or 20 nM (based on the enzymatic activity of used batches) final concentration to a white solid bottom medium binding 1536-well plate (Greiner Bio-One, Monroe, NC), and quickly spanned down. 23 nl/well of compound solutions in DMSO were added with a pintool transfer (Kalypsis, San Diego, CA) at a single 76 uM final concentration. Next, 1.5 µl/well ATP was dispensed with BioraptR at 10 uM final concentration after which the plates were incubated at 37 deg C for 30 min. HTRF(R) Transcreener(R) ADP (Cisbio US, Bedford, MA) detection reagents were prepared accordingly to the protocol and dispensed into the plate (1.5 uL/well each), incubated for 30 min at ambient temperature. Then, the plates were read using Envision reader with excitation at 330nm and emission at 615nm (Eu(3)-Cryptate donor signal) and 665nm (d2 acceptor signal). The ratio of […] was calculated for each well.
Regarding `O=C(NCC1(N2CCCCC2)CCCCC1)c1cccc([N+](=O)[O-])c1`, the activity change is inactive: -1.62%.

With `CSc1ccc(C(=O)NCC2(N3CCOCC3)CCCCC2)cc1`, the activity change was inactive: -4.05%.

For the compound `O=c1[nH]c2ccccc2n1C1CCN(C(c2ccccc2OC(F)(F)F)c2nnnn2C2CCCC2)CC1` (centres undefined), the activity change was inactive: 1.4%.

With `N#CC1(Nc2ccccc2)CCN(CCc2ccccc2)CC1`, the activity change is inactive: -3.52%.

Turning to `CCN1CCC(Nc2ccc(Cl)cc2)CC1`, the activity change was inactive: 0.0595%.

Consider `O=C(NCC1(N2CCCCC2)CCCCC1)c1ccc(OC(F)F)cc1`, for which the activity change was inactive: 1.74%.

For `CC(C)(C)n1nnnc1C(c1ccccc1OC(F)(F)F)N1CCC(n2c(=O)[nH]c3ccccc32)CC1` (centres undefined), the activity change was inactive: 0.456%.

For the compound `COc1ccc(NC2CCN(C(=O)OC(C)(C)C)CC2)cc1`, the activity change is inactive: -1.46%.

In the case of `CC(C)c1ccc(C(=O)NCC2(N3CCOCC3)CCCCC2)cc1`, the activity change was inactive: 0.615%.

As for `CN1CCN(CCOC(=O)C(O)(c2ccccc2)c2ccccc2)CC1`, the activity change was inactive: 2.18%.

Regarding `CCCCn1nnnc1C(c1cccc2ccccc12)N1CCC(n2c(=O)[nH]c3ccccc32)CC1` (centres undefined), the activity change is inactive: -1.84%.

For `O=C(NCC1(N2CCOCC2)CCCCC1)c1cc(=O)[nH]c2ccccc12`, the activity change was inactive: -3.1%.

Consider `COc1cc(C(=O)NCC2(N3CCCCC3)CCCCC2)ccc1OC(F)F`, for which the activity change is inactive: -1.79%.

As for `O=C(NCC1(N2CCCCC2)CCCCC1)c1cccc(C(F)(F)F)c1`, the activity change was inactive: -0.303%.

As for `O=[N+]([O-])c1cc([N+](=O)[O-])c(NCC2CCS(=O)(=O)C2)c([N+](=O)[O-])c1` (centres undefined), the activity change was inactive: -0.0281%.

As for `CCCCn1nnnc1C(c1ccnc2ccccc12)N1CCC(n2c(=O)[nH]c3ccccc32)CC1` (centres undefined), the activity change was inactive: -6.62%.

For `CCC(c1nnnn1C(C)(C)C)N1CCC(n2c(=O)[nH]c3ccccc32)CC1` (centres undefined), the activity change is inactive: 0.102%.

As for `O=C(NCC1(N2CCOCC2)CCCCC1)c1cc(F)c(F)cc1Cl`, the activity change was inactive: -3.38%.

On to `COc1cc(OC)c(C(=O)NCC2(N(C)C)CCCCC2)cc1OC`, for which the activity change was inactive: 0.48%.

In the case of `CN(C)c1cccc(C(=O)NCC2(N3CCCCC3)CCCCC2)c1`, the activity change was inactive: -4.24%.

For `O=[N+]([O-])c1cc([N+](=O)[O-])c(OC2CCCCC2O)c([N+](=O)[O-])c1` (centres undefined), the activity change was inactive: 0.631%.

Turning to `COc1ccc(CN(CCCl)CCCl)cc1Cl`, the activity change is inactive: -0.498%.

Turning to `CCCCn1nnnc1C(c1ccccc1OC(F)(F)F)N1CCC(n2c(=O)[nH]c3ccccc32)CC1` (centres undefined), the activity change is inactive: 1.03%.

Regarding `CC(C)c1ccc(NC2CCN(C(=O)OC(C)(C)C)CC2)cc1`, the activity change was inactive: 0.25%.
